Reference: ChEMBL document CHEMBL3638402, “Quarternized buprenorphine analogs” (2015)

The chains behind the UniProt entries cited, without tags or fusion partners.
UniProt P41145, whole entry: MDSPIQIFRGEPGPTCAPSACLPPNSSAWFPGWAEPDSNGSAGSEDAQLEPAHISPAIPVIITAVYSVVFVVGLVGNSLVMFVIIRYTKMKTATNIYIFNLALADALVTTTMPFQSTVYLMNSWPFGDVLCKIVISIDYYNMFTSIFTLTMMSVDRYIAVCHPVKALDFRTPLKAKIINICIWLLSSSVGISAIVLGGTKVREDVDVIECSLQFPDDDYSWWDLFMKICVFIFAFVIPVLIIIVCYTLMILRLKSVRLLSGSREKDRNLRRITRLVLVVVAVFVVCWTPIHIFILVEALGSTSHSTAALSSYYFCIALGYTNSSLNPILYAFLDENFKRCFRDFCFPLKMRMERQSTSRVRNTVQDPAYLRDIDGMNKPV
UniProt P41143, whole entry: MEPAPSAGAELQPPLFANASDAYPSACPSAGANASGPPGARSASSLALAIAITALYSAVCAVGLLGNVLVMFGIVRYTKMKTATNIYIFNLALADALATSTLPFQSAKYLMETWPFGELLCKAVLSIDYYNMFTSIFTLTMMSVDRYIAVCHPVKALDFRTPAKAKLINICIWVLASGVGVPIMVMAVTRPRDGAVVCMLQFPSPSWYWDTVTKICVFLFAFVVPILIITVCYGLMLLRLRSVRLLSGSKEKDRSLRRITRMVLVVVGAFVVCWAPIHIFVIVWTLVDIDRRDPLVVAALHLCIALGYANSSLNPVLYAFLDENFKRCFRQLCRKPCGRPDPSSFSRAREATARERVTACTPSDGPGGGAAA
UniProt P35372, whole entry: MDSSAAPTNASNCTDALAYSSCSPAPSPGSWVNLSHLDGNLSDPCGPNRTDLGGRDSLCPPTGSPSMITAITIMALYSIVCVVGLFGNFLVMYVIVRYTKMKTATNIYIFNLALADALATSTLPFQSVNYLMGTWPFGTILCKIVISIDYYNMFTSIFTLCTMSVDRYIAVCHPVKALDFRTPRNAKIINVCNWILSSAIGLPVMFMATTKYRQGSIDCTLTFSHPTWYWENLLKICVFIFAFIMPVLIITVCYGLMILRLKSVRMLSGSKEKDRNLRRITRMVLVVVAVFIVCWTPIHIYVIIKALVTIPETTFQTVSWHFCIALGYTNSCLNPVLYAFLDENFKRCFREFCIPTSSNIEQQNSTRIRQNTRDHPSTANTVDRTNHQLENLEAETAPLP

What was measured:
[1] = target: Kappa-type opioid receptor (Homo sapiens, UniProt P41145); test: Radioligand Dose-Displacement Binding Assay: Membranes from recombinant HEK-293 cells expressing the human kippa opioid receptor (cloned in house) were prepared by lysing cells in ice cold hypotonic buffer (2.5 mM MgCl2, 50 mM HEPES, pH 7.4) (10 mL/10 cm dish) followed by homogenization with a tissue grinder/Teflon pestle. Membranes were collected by centrifugation at 30,000xg for 15 min at 4 C. a; conditions: sf9
[2] = target: Delta-type opioid receptor (Homo sapiens, UniProt P41143); test: Radioligand Dose-Displacement Binding Assay: δ-opioid Receptor Binding Assay Procedures were conducted as follows. Radioligand dose-displacement assays used 0.3 nM [3H]-Naltrindole (Perkin Elmer, Shelton, Conn.; 33.0 Ci/mmole) with 5 μg membrane protein (Perkin Elmer, Shelton, Conn.) in a final volume of 500 μl binding buffer (5 mM MgCl2, 5% DMSO, 50 mM Trizma base, pH 7.4). Non-specific binding w
Mu-type opioid receptor = Mu-type opioid receptor (Homo sapiens, UniProt P35372); test: Radioligand Dose-Displacement Binding Assay: Radioligand dose-displacement binding assays for -opioid receptors used 0.3 nM [3H]-diprenorphine (Perkin Elmer, Shelton, Conn.), with […] membrane protein/well in a final volume of 500 ul binding buffer (10 mM MgCl2, 1 mM EDTA, 5% DMSO, 50 mM HEPES, pH 7.4). Reactions were carried out in the absence or presence of increasing concentrations of unlabele

| Compound | Ki [1] [µM] | Ki [2] [µM] | Ki (Mu-type opioid receptor) [µM] |
| --- | --- | --- | --- |
| CO[C@]12CC[C@@]3(C[C@@H]1COCc1ccccc1F)[C@H]1Cc4ccc(O)c5c4[C@@]3(CC[N+]1(C)CC1CC1)[C@H]2O5 (some centres undefined) | 0.0002 |  |  |
| CO[C@]12CC[C@@]3(C[C@@H]1COCc1ccc(C)cc1)[C@H]1Cc4ccc(O)c5c4[C@@]3(CC[N+]1(C)CC1CC1)[C@H]2O5 (some centres undefined) |  | 0.109 |  |
| CO[C@]12CC[C@@]3(C[C@@H]1COCc1cccc(F)c1)[C@H]1Cc4ccc(O)c5c4[C@@]3(CC[N+]1(C)CC1CC1)[C@H]2O5 (some centres undefined) |  |  | 0.00535 |
| CO[C@]12CC[C@@]3(C[C@@H]1COCc1ccc(F)cc1)[C@H]1Cc4ccc(O)c5c4[C@@]3(CC[N+]1(C)CC1CC1)[C@H]2O5 (some centres undefined) |  | 0.175 |  |
| CO[C@]12CC[C@@]3(C[C@@H]1COCc1cccc(Cl)c1)[C@H]1Cc4ccc(O)c5c4[C@@]3(CC[N+]1(C)CC1CC1)[C@H]2O5 (some centres undefined) |  |  | 0.00626 |
| CO[C@]12CC[C@@]3(C[C@@H]1COCc1ccccc1)[C@H]1Cc4ccc(O)c5c4[C@@]3(CC[N+]1(C)CC1CC1)[C@H]2O5 (some centres undefined) |  | 0.0188 |  |
| CO[C@]12CC[C@@]3(C[C@@H]1COCc1ccsc1)[C@H]1Cc4ccc(O)c5c4[C@@]3(CC[N+]1(C)CC1CC1)[C@H]2O5 (some centres undefined) | 0.0002 | 0.202 | 0.0243 |
